Experimental data as given in patent US20250154250A1, “CEACAM5 ADC-ANTI-PD1/PD-L1 COMBINATION THERAPY” (SANOFI, priority 2021, published 2025).

Tests used:
[1] = target: T1, recombinant human CEACAM5 (Homo sapiens, UniProt P06731); assay: ELISA binding to recombinant human CEACAM5; settings: read-out: affinity (ELISA)
T1 sequence (P06731 35-676): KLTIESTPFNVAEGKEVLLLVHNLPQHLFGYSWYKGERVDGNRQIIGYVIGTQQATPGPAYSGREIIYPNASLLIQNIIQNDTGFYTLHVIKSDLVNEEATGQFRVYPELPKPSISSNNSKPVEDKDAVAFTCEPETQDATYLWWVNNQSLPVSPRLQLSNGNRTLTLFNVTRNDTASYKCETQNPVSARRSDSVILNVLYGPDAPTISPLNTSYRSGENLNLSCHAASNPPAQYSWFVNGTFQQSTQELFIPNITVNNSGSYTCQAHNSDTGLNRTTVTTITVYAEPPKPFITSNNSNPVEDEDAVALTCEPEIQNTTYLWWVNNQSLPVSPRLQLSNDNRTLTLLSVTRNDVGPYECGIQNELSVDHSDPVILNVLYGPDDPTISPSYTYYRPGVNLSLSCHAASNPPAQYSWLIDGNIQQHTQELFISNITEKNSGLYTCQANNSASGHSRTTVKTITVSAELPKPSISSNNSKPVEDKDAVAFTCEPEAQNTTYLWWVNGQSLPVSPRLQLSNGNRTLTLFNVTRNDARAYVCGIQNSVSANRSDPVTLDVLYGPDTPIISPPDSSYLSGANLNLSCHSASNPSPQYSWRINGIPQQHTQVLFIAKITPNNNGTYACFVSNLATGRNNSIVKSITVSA
Description: “Affinity” is defined, in theory, by the equilibrium association between the whole antibody and the antigen. It can be experimentally assessed by a variety of known methods, such as measuring association and dissociation rates with surface plasmon resonance or measuring the EC50 (or apparent KD) in an immunochemical assay (ELISA, FACS). In these assays, the EC50 is the concentration of the antibody which induces a response halfway between the baseline and maximum after some specified exposure time on a defined concentration of antigen by ELISA (enzyme-linked immuno-sorbent assay) or cell expressing the antigen by FACS (Fluorescence Activated Cell Sorting).
Affinity for human CEACAM5 or for Macaca fascicularis CEACAM5 may be determined as the EC50 value in an ELISA using soluble recombinant CEACAM5 as capture antigen.

[2] = tested on: heavily pre-treated high CEACAM5 expressers; settings: monotherapy
tumor cells = settings: see WO 2014/079886; cited from earlier work

## tusamitamab ravtansine
[1]
  pEC50: ~10.70
[2]
  Most common Adverse Drug Reactions (ADRs): ocular toxicity (reversible without treatment discontinuation), and minimal hematological/nerve toxicity
Tumor cells
  cytotoxic activity on tumor cells in vitro: induce cytotoxic activity

pEC50: −log10 of the molar value.
